Laboratory results published in patent US8828401B2, “Cytotoxic peptides and antibody drug conjugates thereof” (Pfizer Inc., priority 2011, dated 2014).

Assays:
OVCAR3 (ovarian cancer) = test: In vitro cytotoxicity assay with anti-Notch ADCs (MTS); type: cell-based
Description: (§1) The effects of anti-Notch ADCs were assessed on 1) cell lines endogenously expressing Notch protein: HCC2429 (lung cancer), OVCAR3 (ovarian cancer) and MDA-MB-468 (breast cancer), 2) cell lines engineered to over-express Notch protein: MDA-MB-468/hNotch and U2OS/hNotch, and 3) a negative control cell line (SW900) using an MTS cellular viability indicator (Promega, Madison, Wis.). These cell lines were cultured with increasing concentrations of anti-Notch ADCs comprising humanized anti-Notch antibodies, hu28 and hu75, and rat-human chimeric anti-Notch antibodies, ch28 and ch75, conjugated to various linker-payload combinations of the present invention. As a specificity control for the anti-Notch-ADCs, non-targeted control-ADCs (huNeg8.8-ADCs or ch2H6-ADCs) were also tested on the same cell lines. After four days, viability of each culture was assessed. IC50 values were calculated by logistic non-linear regression and presented as ng Ab/mL. The drug antibody ratio (DAR) is also provided.

HCC2429 (lung cancer) = test: as above; type: cell-based
Description: as §1

MDA-MB-468/hNotch = test: as above; type: cell-based
Description: as §1

37622A1 NSCLC xenografts = test: 37622A1 NSCLC patient-derived xenografts with anti-Notch ADCs; type: in vivo, nude (Nu/Nu) female mice; conditions: for tumor volume (mm^3 ± SEM): 3 mg/kg Q4dx4
Description: (§2) Humanized anti-Notch antibodies, hu28 and hu75, and rat-human chimeric anti-Notch antibodies, ch28 and ch75, were conjugated to various linker-payload combinations and tested in 37622A1 non-small cell lung cancer (NSCLC), HCC2429 lung cancer, MDA-MB-468 breast cancer and N87 gastric cancer xenograft models. For each model described below the first dose was given on Day 0. The tumors were measured at least once a week and their volume was calculated with the formula: tumor volume (mm^3)=0.5×(tumor width^2)(tumor length). The mean tumor volumes (±S.E.M.) for each treatment group were calculated having a maximum of 10 animals and a minimum of 6 animals to be included.
The effects of anti-Notch ADCs were examined in immunodeficient mice on the in vivo growth of human tumor xenografts that were established from fragments of freshly resected 37622A1 NSCLC tumors obtained in accordance with appropriate consent procedures (Asterand). The 37622A1 NSCLC patient-derived xenografts were subcutaneously passaged in vivo as fragments from animal to animal in nude (Nu/Nu) female mice. When the tumors reached a volume of 150 to 300 mm^3, they were staged to ensure uniformity of the tumor size among various treatment groups. The 37622A1 NSCLC model was dosed intraveneously four times every four days (Q4dx4) with PBS vehicle, humanized anti-Notch ADCs, control huNeg-8.8 ADCs and cisplatin at the doses provided in Table 11.

HCC2429 lung xenografts = HCC2429 lung xenografts with anti-Notch ADCs; type: in vivo, nude (Nu/Nu) female mice
Description: as §2
Similar in vivo experiments were performed with the HCC2429 lung cancer cell line as described above. […] When the tumors reached a volume of 200 to 400 mm^3, the tumors were staged to ensure uniformity of the tumor mass among various treatment groups. The HCC2429 lung model was dosed intraveneously Q4dx4 with PBS vehicle, humanized anti-Notch ADCs and control huNeg-8.8 ADCs at the doses provided in Tables 12 and 13.

[1] = first of two individual repeats
[2] = second of two individual repeats

B1: hu75-vc0101: humanized anti-Notch antibody hu75 conjugated to mcValCitPABC-#54 (conjugate)
heavy: EVQLVESGGGLVQPGGSLRLSCAASGYAFTDYWMTWVRQAPGKGLEWVAEISPNSGGTNFNEKFKGRFTISVDNAKNSLYLQMNSLRAEDTAVYYCARGEIRYNWFAYWGQGTLVTVSSASTKGPSVFPLAPSSKSTSGGTAALGCLVKDYFPEPVTVSWNSGALTSGVHTFPAVLQSSGLYSLSSVVTVPSSSLGTQTYICNVNHKPSNTKVDKKV[human IgG1 Fc left out]
light: DIQMTQSPSSLSASVGDRVTITCKASQNVGNNIAWYQQKPGKAPKLLIYYASNRYTGVPSRFSGSGYGTDFTLTISSLQPEDFATYYCQRLYNSPFTFGGGTKVEIKRTVAAPSVFIFPPSDEQLKSGTASVVCLLNNFYPREAKVQWKVDNALQSGNSQESVTEQDSKDSTYSLSSTLTLSKADYEKHKVYACEVTHQGLSSPVTKSFNRGEC
In the case of B1, the “IC50 (ng Ab/mL)” value (OVCAR3 (ovarian cancer)) is reported as 515 ng Ab/mL, the “IC50 (ng Ab/mL)” value (HCC2429 (lung cancer); [1]) is reported as 611 ng Ab/mL and the “IC50 (ng Ab/mL)” value (HCC2429 (lung cancer); [2]) is reported as 3295 ng Ab/mL. The “IC50 (ng Ab/mL)” value (MDA-MB-468/hNotch; [1]) was 37 ng Ab/mL, the “IC50 (ng Ab/mL)” value (MDA-MB-468/hNotch; [2]) was 36 ng Ab/mL and the “tumor volume (mm^3 ± SEM)” value (37622A1 NSCLC xenografts; DAY 4) was 200 ± 16 mm^3. For the same molecule, the “tumor volume (mm^3 ± SEM)” value (37622A1 NSCLC xenografts; DAY 7) was 227 ± 16 mm^3, the “tumor volume (mm^3 ± SEM)” value (37622A1 NSCLC xenografts; DAY 11) was 175 ± 20 mm^3 and the “tumor volume (mm^3 ± SEM)” value (37622A1 NSCLC xenografts; DAY 14) was 156 ± 19 mm^3. The “tumor volume (mm^3 ± SEM)” value (37622A1 NSCLC xenografts; DAY 18) was 112 ± 16 mm^3, the “tumor volume (mm^3 ± SEM)” value (37622A1 NSCLC xenografts; DAY 21) was 122 ± 27 mm^3 and the “tumor volume (mm^3 ± SEM)” value (37622A1 NSCLC xenografts; DAY 25) was 137 ± 33 mm^3. For the same molecule, the “tumor volume (mm^3 ± SEM)” value (37622A1 NSCLC xenografts; DAY 28) was 161 ± 53 mm^3, the “tumor volume (mm^3 ± SEM)” value (37622A1 NSCLC xenografts; DAY 32) was 175 ± 52 mm^3 and the “tumor volume (mm^3 ± SEM)” value (37622A1 NSCLC xenografts; DAY 35) was 271 ± 79 mm^3. The “tumor volume (mm^3 ± SEM)” value (37622A1 NSCLC xenografts; DAY 39) was 319 ± 103 mm^3, the “tumor volume (mm^3 ± SEM)” value (37622A1 NSCLC xenografts; DAY 42) was 357 ± 113 mm^3 and the “tumor volume (mm^3 ± SEM)” value (37622A1 NSCLC xenografts; DAY 46) was 431 ± 137 mm^3. For the same molecule, the “tumor volume (mm^3 ± SEM)” value (37622A1 NSCLC xenografts; DAY 49) was 519 ± 135 mm^3, the “tumor volume (mm^3 ± SEM)” value (37622A1 NSCLC xenografts; DAY 53) was 678 ± 195 mm^3 and the “tumor volume (mm^3 ± SEM)” value (37622A1 NSCLC xenografts; DAY 56) was 818 ± 251 mm^3. For the same molecule, the “tumor volume (mm^3 ± SEM)” value (37622A1 NSCLC xenografts; DAY 60) was 710 ± 162 mm^3, the “tumor volume (mm^3 ± SEM)” value (37622A1 NSCLC xenografts; DAY 63) was 824 ± 191 mm^3 and the “tumor volume (mm^3 ± SEM)” value (37622A1 NSCLC xenografts; DAY 67) was 938 ± 202 mm^3. For the same molecule, the “tumor volume (mm^3 ± SEM)” value (37622A1 NSCLC xenografts; DAY 70) was 953 ± 209 mm^3, the “tumor volume (mm^3 ± SEM)” value (37622A1 NSCLC xenografts; DAY −1) was 185 ± 17 mm^3 and the “effect on growth of 37622A1 NSCLC xenografts (in words)” value (37622A1 NSCLC xenografts; Q4dx4, doses of Table 11) was “inhibited growth of 37622A1 NSCLC xenografts”. The “tumor volume (mm^3 +/− SEM)” value (HCC2429 lung xenografts; 0.3 mg/kg Q4dx4, DAY 1) was 524 ± 66 mm^3, the “tumor volume (mm^3 +/− SEM)” value (HCC2429 lung xenografts; 0.3 mg/kg Q4dx4, DAY 3) was 713 ± 74 mm^3 and the “tumor volume (mm^3 +/− SEM)” value (HCC2429 lung xenografts; 0.3 mg/kg Q4dx4, DAY 6) was 1078 ± 74 mm^3. For the same molecule, the “tumor volume (mm^3 +/− SEM)” value (HCC2429 lung xenografts; 0.3 mg/kg Q4dx4, DAY 8) was 1499 ± 115 mm^3, the “tumor volume (mm^3 +/− SEM)” value (HCC2429 lung xenografts; 0.3 mg/kg Q4dx4, DAY 10) was 1830 ± 120 mm^3 and the “tumor volume (mm^3 +/− SEM)” value (HCC2429 lung xenografts; 0.3 mg/kg Q4dx4, DAY 13) was 2408 ± 226 mm^3. For the same molecule, the “tumor volume (mm^3 +/− SEM)” value (HCC2429 lung xenografts; 0.3 mg/kg Q4dx4, DAY −1) was 247 ± 29 mm^3, the “tumor volume (mm^3 +/− SEM)” value (HCC2429 lung xenografts; 1 mg/kg Q4dx4, DAY 1) was 548 ± 37 mm^3 and the “tumor volume (mm^3 +/− SEM)” value (HCC2429 lung xenografts; 1 mg/kg Q4dx4, DAY 3) was 753 ± 93 mm^3. The “tumor volume (mm^3 +/− SEM)” value (HCC2429 lung xenografts; 1 mg/kg Q4dx4, DAY 6) was 1096 ± 146 mm^3, the “tumor volume (mm^3 +/− SEM)” value (HCC2429 lung xenografts; 1 mg/kg Q4dx4, DAY 8) was 1428 ± 200 mm^3 and the “tumor volume (mm^3 +/− SEM)” value (HCC2429 lung xenografts; 1 mg/kg Q4dx4, DAY 10) was 1611 ± 189 mm^3. The “tumor volume (mm^3 +/− SEM)” value (HCC2429 lung xenografts; 1 mg/kg Q4dx4, DAY 13) was 1803 ± 208 mm^3, the “tumor volume (mm^3 +/− SEM)” value (HCC2429 lung xenografts; 1 mg/kg Q4dx4, DAY 15) was 1871 ± 232 mm^3 and the “tumor volume (mm^3 +/− SEM)” value (HCC2429 lung xenografts; 1 mg/kg Q4dx4, DAY 17) was 1948 ± 228 mm^3. For the same molecule, the “tumor volume (mm^3 +/− SEM)” value (HCC2429 lung xenografts; 1 mg/kg Q4dx4, DAY −1) was 246 ± 23 mm^3, the “tumor volume (mm^3 +/− SEM)” value (HCC2429 lung xenografts; 3 mg/kg Q4dx4, DAY 1) was 498 ± 39 mm^3 and the “tumor volume (mm^3 +/− SEM)” value (HCC2429 lung xenografts; 3 mg/kg Q4dx4, DAY 3) was 498 ± 44 mm^3. For the same molecule, the “tumor volume (mm^3 +/− SEM)” value (HCC2429 lung xenografts; 3 mg/kg Q4dx4, DAY 6) was 469 ± 70 mm^3, the “tumor volume (mm^3 +/− SEM)” value (HCC2429 lung xenografts; 3 mg/kg Q4dx4, DAY 8) was 407 ± 71 mm^3 and the “tumor volume (mm^3 +/− SEM)” value (HCC2429 lung xenografts; 3 mg/kg Q4dx4, DAY 10) was 370 ± 81 mm^3. The “tumor volume (mm^3 +/− SEM)” value (HCC2429 lung xenografts; 3 mg/kg Q4dx4, DAY 13) was 273 ± 69 mm^3, the “tumor volume (mm^3 +/− SEM)” value (HCC2429 lung xenografts; 3 mg/kg Q4dx4, DAY 15) was 298 ± 88 mm^3 and the “tumor volume (mm^3 +/− SEM)” value (HCC2429 lung xenografts; 3 mg/kg Q4dx4, DAY 17) was 250 ± 77 mm^3. For the same molecule, the “tumor volume (mm^3 +/− SEM)” value (HCC2429 lung xenografts; 3 mg/kg Q4dx4, DAY 20) was 177 ± 44 mm^3, the “tumor volume (mm^3 +/− SEM)” value (HCC2429 lung xenografts; 3 mg/kg Q4dx4, DAY 23) was 160 ± 35 mm^3 and the “tumor volume (mm^3 +/− SEM)” value (HCC2429 lung xenografts; 3 mg/kg Q4dx4, DAY 27) was 174 ± 51 mm^3. The “tumor volume (mm^3 +/− SEM)” value (HCC2429 lung xenografts; 3 mg/kg Q4dx4, DAY 30) was 196 ± 72 mm^3, the “tumor volume (mm^3 +/− SEM)” value (HCC2429 lung xenografts; 3 mg/kg Q4dx4, DAY 34) was 295 ± 121 mm^3 and the “tumor volume (mm^3 +/− SEM)” value (HCC2429 lung xenografts; 3 mg/kg Q4dx4, DAY 37) was 433 ± 179 mm^3. The “tumor volume (mm^3 +/− SEM)” value (HCC2429 lung xenografts; 3 mg/kg Q4dx4, DAY 41) was 606 ± 259 mm^3, the “tumor volume (mm^3 +/− SEM)” value (HCC2429 lung xenografts; 3 mg/kg Q4dx4, DAY 45) was 836 ± 359 mm^3 and the “tumor volume (mm^3 +/− SEM)” value (HCC2429 lung xenografts; 3 mg/kg Q4dx4, DAY 49) was 732 ± 350 mm^3. The “tumor volume (mm^3 +/− SEM)” value (HCC2429 lung xenografts; 3 mg/kg Q4dx4, DAY −1) was 245 ± 28 mm^3 and the “effect on growth of HCC2429 lung xenografts (in words)” value (HCC2429 lung xenografts; humanized ADCs, Q4dx4, doses of Tables 12 and 13) was “inhibited growth of HCC2429 lung xenografts in a dose-dependent manner”.
